Here are results for one compound from patent US11578372B2, “NTRK1 fusion molecules and uses thereof” (FOUNDATION MEDICINE, INC., priority 2012, dated 2023).

The experiment has as its system lung adenocarcinoma harboring MPRIP-NTRK1. Briefly: Treatment of the index patient (MPRIP-NTRK1 lung adenocarcinoma) with crizotinib. It counts as in vivo, human. Particulars: crizotinib 250 mg twice daily, one patient.

The structures appear in SMILES notation. Entries after “also recorded” stand apart in the source; their conditions may differ.

In the case of `C[C@@H](Oc1cc(-c2cnn(C3CCNCC3)c2)cnc1N)c1c(Cl)ccc(F)c1Cl` [crizotinib], the radiographic tumor response entry is on record as “tumor shrinkage; also recorded: minor radiographic response”.
